Key:
[1] = system: RBL-2H3 rat mast cell lines; conditions: inactivation state and activation state through IgE and HSA treatment
Procedure: First, RBL-2H3 rat mast cell lines (Korean Cell Line Bank, Korea) were cultured in Dulbecco's modified Eagle's medium (DMEM, Gibco, U.S.A.) supplemented with 10% fetal bovine serum (FBS, Sigma) using a flask for tissue culture (SPL, Korea). The cultured cell lines were detached from the bottom of the culture container using a 1% trypsin solution, and then only cell deposits were collected by centrifugation. The cell deposits were again suspended in DMEM culture liquid, placed in each well of a 6-well plate for tissue culture (SPL, Korea) at 1×10^5 cells per well, and then cultured for 24 h under conditions of 37° C. and 5% CO2. After 24 h, the medium was exchanged with the same culture liquid. […] After the completion of the culture, the culture supernatant fluid was removed, the cultured cell lines were detached from the bottom of the culture container using a 1% trypsin solution, and then only cell precipitates were collected by centrifugation. The cells were stained using an Annexin V-PI staining kit (BD pharmigen), and then FL1 and FL2 intensities were measured using flow cytometry, FACS. Annexin V-positive apoptotic cells were counted (see FIG. 2a).

beta-hexosaminidase = conditions: IgE 1 μg/ml sensitized, HSA 1 μg/ml stimulated; peptide 1 and 10 μg/ml; absorbance 405 nm
Procedure: In the culture of RBL-2H3 cells sensitized by IgE treatment (1 μg/ml) for 16 h, the existing culture medium was removed and exchanged with a tyrode buffer. […] In addition, in order to measure the activity of beta-hexosaminidase, the degree of color development after a reaction with a substrate, p-N-acetyl-glucosamine (NAG; SIGMA, USA) was determined by measuring the absorbance at 405 nm using a spectrophotometer (see FIG. 3b).

Substance: Trp-Val-Pro-Tyr-Gln-Ala-Arg-Val-Pro-Tyr-Pro-Arg (WVPYQARVPYPR; Sema3A peptide 1) [peptide of the present invention]
- activity to induce mast cell-specific apoptosis, activated versus inactivated state [1]: more remarkable in the activated mast cells
- beta-hexosaminidase secreted due to the activation of mast cells (beta-hexosaminidase): effects of inhibiting histamine and beta-hexosaminidase
